Assay results from PubChem BioAssay AID588675 (Johns Hopkins Ion Channel Center, 2011).
The entries are a selection whose mix differs from that of the whole data set. Calls of active or inactive are those of the source.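 How the source made its calls: active means plate-corrected calcium response at least 3 library SD above typical, normal starting fluorescence, not activating the receptor alone; inactive means the rest.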

By UniProt entry, the sequences of proteins in these tests, tags left out.
UniProt Q96LB2, whole entry: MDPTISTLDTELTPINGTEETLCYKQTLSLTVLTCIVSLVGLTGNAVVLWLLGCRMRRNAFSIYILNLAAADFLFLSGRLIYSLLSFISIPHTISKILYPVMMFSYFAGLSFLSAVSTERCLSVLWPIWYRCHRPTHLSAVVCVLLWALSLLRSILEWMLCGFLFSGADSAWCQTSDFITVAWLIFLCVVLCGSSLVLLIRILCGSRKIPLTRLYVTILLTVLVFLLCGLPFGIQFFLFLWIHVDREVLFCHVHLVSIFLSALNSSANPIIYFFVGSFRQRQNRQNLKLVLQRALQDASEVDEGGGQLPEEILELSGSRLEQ

Molecular target: Mas-related G-protein coupled receptor member X1 (Homo sapiens) (UniProt Q96LB2)
Experiment: positive allosteric modulators of MrgX1, primary screen, HEK293 cells, Fluo-4 calcium flux (AID 588675);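 further: compound read alongside a low EC10 to EC30 dose of BAM8-22 agonist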;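 on B-score: peak minus trough fluorescence over baseline measured at the second addition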
Settings: MrgX1-HEK293, Fluo-4 calcium flux, FDSS, at 10 µM; stronger effect = higher value

Structure (SMILES)	outcome	B-score
O=[N+]([O-])c1cc([N+](=O)[O-])c(O)c([N+](=O)[O-])c1.c1ccc(Oc2ccncc2)cc1	inactive	
CCOC(=O)c1ccc(NC(=O)C(C)(CCl)SC)cc1 (stereo not drawn)	inactive	
CCOC(=O)c1ccc(NP(C)(=O)Oc2ccc(OC)cc2)cc1 (stereo not drawn)	inactive	
O=C(OC1CN2CCC1CC2)c1cccc([N+](=O)[O-])c1 (stereo not drawn)	inactive	
CCOP(C)(=S)SCC(=O)NC(C)C(=O)O (stereo not drawn)	inactive	
CP(=O)(NC(=O)Nc1ccccc1)Oc1ccccc1 (stereo not drawn)	inactive	
O=C(COc1ccccc1)OC1CN2CCC1CC2 (stereo not drawn)	inactive	
CCc1ccc(OP(C)(=O)N2CCN(c3ccc([N+](=O)[O-])cc3)CC2)cc1 (stereo not drawn)	inactive	
Cc1cc(C)cc(OP(C)(=O)Nc2ccc(SC(F)(F)F)cc2)c1 (stereo not drawn)	inactive	
O=C(Nc1ccncc1[N+](=O)[O-])c1ccc([N+](=O)[O-])cc1[N+](=O)[O-]	inactive	
COP1(=S)c2c(C)nn(CCC#N)c2N=C(c2ccc(F)cc2)N1C (stereo not drawn)	inactive	
CP(=O)(Nc1ccc(SC(F)(F)F)cc1)Oc1ccc(Cl)cc1 (stereo not drawn)	inactive	
Cc1cccc(C)c1OP(C)(=O)Nc1ccc(SC(F)(F)F)cc1 (stereo not drawn)	inactive	
CP(=O)(Oc1ccccc1)OC(c1ccccc1)C(F)(F)F (stereo not drawn)	inactive	
CP(=O)(Nc1ccccc1Br)Oc1ccccc1 (stereo not drawn)	inactive	
O=[N+]([O-])c1ccc(Nc2ccc(Oc3ccc([N+](=O)[O-])cc3[N+](=O)[O-])cc2)c([N+](=O)[O-])c1	inactive	
Cc1cc(SC(NC=O)C(Cl)(Cl)Cl)ncn1 (stereo not drawn)	inactive	
O=P(Nc1ccccn1)(c1cccc2ccccc12)c1cccc2ccccc12	inactive	
COc1ccccc1OP(C)(=O)Nc1ccccc1 (stereo not drawn)	inactive	
CCOC(=O)Nc1cccc([As](=O)(O)O)c1	inactive	
CP(=S)(Nn1cnnc1)Oc1ccccc1 (stereo not drawn)	inactive	
Cc1cc(SC(NC(=O)c2ccccc2)C(Cl)(Cl)Cl)nc(C(C)C)n1 (stereo not drawn)	inactive	
CCOC(=O)Nc1ccc([As](=O)(O)O)c(O)c1	inactive	
Cc1cc(C)cc(OP(C)(N)=O)c1 (stereo not drawn)	inactive	

Structure (SMILES)	outcome	B-score
CC(C)NC(=O)NP(=O)(Oc1ccccc1)Oc1ccccc1	inactive	
COc1ccccc1OP(C)(=O)Nc1cc(Cl)ccc1C (stereo not drawn)	inactive	
CCN(CC)C(=S)SC(NC=O)C(Cl)(Cl)Cl (stereo not drawn)	inactive	
COc1ccc(OP(C)(=O)Nc2cccc(F)c2)cc1 (stereo not drawn)	inactive	
O=[N+]([O-])c1cc([N+](=O)[O-])c(-c2ccn[nH]2)s1	inactive	
COc1ccccc1OP(C)(=O)Nc1ccc(C)cc1 (stereo not drawn)	inactive	
CC(C)c1ccc(OP(=O)(Nc2ccccn2)Oc2ccccc2F)cc1 (stereo not drawn)	inactive	
Cc1ccc(NP(C)(=O)Oc2ccccc2)c(C)c1 (stereo not drawn)	inactive	
CCOC(=O)c1ccc(NP(C)(=O)Oc2ccccc2)cc1 (stereo not drawn)	inactive	
ClCCSc1nnc(-c2cccnc2)o1	inactive	
O=[N+]([O-])c1ccc2c(c1)C=Nc1ccccc1O2	inactive	
Cc1ccc2nc3c(c(C)c2c1)CC(C(Cl)Cl)S3 (stereo not drawn)	inactive	
Cc1ccc(OP(=O)(Nc2ccc([N+](=O)[O-])cn2)Oc2ccc(C)cc2)cc1	inactive	
CC(C)(C)c1ccc(OP(C)(=O)Nc2ccc(SC(F)(F)F)cc2)cc1 (stereo not drawn)	inactive	
Cc1cccc(C)c1OP(C)(N)=O (stereo not drawn)	inactive	
O=[As](O)(c1ccc(O)cc1)c1ccccc1O	inactive	
C[As](=O)(O)c1cccc(C(=O)O)c1	inactive	
O=[N+]([O-])c1cc([N+](=O)[O-])c(Nc2cccnc2)c([N+](=O)[O-])c1	inactive	
COc1ccc(N/C(=N/P(=O)(N2CCOCC2)N2CCOCC2)N2CCOCC2)cc1	inactive	
COc1ccc2nc(NP(=O)(c3ccccc3)c3ccccc3)sc2c1	inactive	
COc1cc(I)ccc1[As](=O)(O)O	inactive	
O=C(OC1CN2CCC1CC2)C12CC3CC(CC(C3)C1)C2 (stereo not drawn)	inactive	
CCN(CC)CCCOC(=O)C(O)(c1ccccc1)c1ccccc1	inactive	
Cc1cc(=O)[nH]c(N[N+](=O)[O-])n1	inactive	

Structure (SMILES)	outcome	B-score
Cc1c2c(nc3ccccc13)SC(C(Cl)Cl)C2 (stereo not drawn)	inactive	
CP(=O)(Nc1ccccn1)Oc1ccccc1 (stereo not drawn)	inactive	
COc1ccccc1OP(C)(=O)Nc1ccc(C)cc1C (stereo not drawn)	inactive	
CCc1ccc(OP(C)(=O)O)cc1	inactive	
Nc1cc(N)c2nonc2c1[N+](=O)[O-]	inactive	
Cc1c(NP(C)(=O)Oc2ccc(C(C)C)cc2)c(=O)n(-c2ccccc2)n1C (stereo not drawn)	inactive	
O=[N+]([O-])c1cc([N+](=O)[O-])c(Nc2ccccn2)c([N+](=O)[O-])c1	inactive	
CC(C)CC(=O)NC(Sc1ccc(Cl)cc1)C(Cl)(Cl)Cl (stereo not drawn)	inactive	
Oc1ccccc1CNc1ccccn1	inactive	
O=C(NC(Sc1ccncn1)C(Cl)(Cl)Cl)c1ccccc1 (stereo not drawn)	inactive	
Cc1c2non([O-])c-2c(C)[n+](=O)[n+]1[O-]	inactive	
COc1ccccc1OP(=O)(Nc1ccc(C)cn1)Oc1ccccc1OC	inactive	
COc1ccc(OP(C)(=O)Nc2ccccn2)cc1 (stereo not drawn)	inactive	
Cc1ccc(OP(=O)(Nc2nccs2)Oc2ccc(C)cc2)cc1	inactive	
CN1CCCC(OC(=O)C(c2ccccc2)c2ccccc2)C1 (stereo not drawn)	inactive	
CN(C)CCOC(=O)C(O)(c1ccccc1)C1CCCC1 (stereo not drawn)	inactive	
Clc1ccc(Cl)c(NC2=NCC(CBr)S2)c1 (stereo not drawn)	inactive	
NC(=O)c1cc([N+](=O)[O-])cc([N+](=O)[O-])c1N	inactive	
CN(C(=O)Cc1ccc(Cl)c(Cl)c1)[C@H]1CCCC[C@H]1N1CCCC1	inactive	
COc1ccccc1OP(C)(=O)Nc1ccc(Br)cc1 (stereo not drawn)	inactive	
Cc1ccc(N/C(=N/P(=O)(N2CCOCC2)N2CCOCC2)N2CCOCC2)cc1	inactive	
CCN(N=Nc1nonc1N)c1nonc1N	inactive	
Nc1cccc2ccc([As](=O)(O)O)cc12	inactive	
CP(=O)(Nc1ccc(Cl)cc1Cl)Oc1ccccc1 (stereo not drawn)		active: 11.4

Structure (SMILES)	outcome	B-score
CP(=O)(OCCOc1ccccc1)OCCOc1ccccc1	inactive	
Cc1nc2ccc3ccccc3c2o1.O=[N+]([O-])c1cc([N+](=O)[O-])c(O)c([N+](=O)[O-])c1	inactive	
O=[N+]([O-])c1cc([N+](=O)[O-])c(CCN2CCOCC2)c([N+](=O)[O-])c1	inactive	
Cc1cc(SC(NC(=O)c2ccc(F)cc2)C(Cl)(Cl)Cl)ncn1 (stereo not drawn)	inactive	
CCOP(=O)(Nc1ccccc1)OCC	inactive	
COc1ccccc1OP(C)(=O)Nc1ccc(C)c(C)c1 (stereo not drawn)	inactive	
CN(C(=O)Cc1ccc(Cl)c(Cl)c1)[C@H]1CCCC[C@@H]1N1CCCC1	inactive	
Cc1ccc(NP(=O)(Oc2ccccc2F)Oc2ccccc2F)nc1	inactive	
COc1ccc(OP(C)(=O)Nc2ccccc2Br)cc1 (stereo not drawn)	inactive	
CC(=O)Nc1ccc([As](=O)(O)O)cc1	inactive	
O=C(O)c1ccccc1[As](=O)(O)O	inactive	
O=P(Nc1nc2ccc(Cl)cc2s1)(c1ccccc1)c1ccccc1	inactive	
Cc1cc(C)cc(OP(C)(=O)Nc2cccc(C(F)(F)F)c2)c1 (stereo not drawn)	inactive	
O=[N+]([O-])c1cccc(NC2=NCC(CBr)S2)c1 (stereo not drawn)	inactive	
O=C(O)CNc1ccc([As](=O)(O)O)cc1	inactive	
CC(C)(C)C(=O)NC(Sc1ccncn1)C(Cl)(Cl)Cl (stereo not drawn)	inactive	
O=[N+]([O-])c1ncn(CCn2ncnc2[N+](=O)[O-])n1	inactive	
CCOC(=O)c1ccc(NP(C)(=O)Oc2ccc(Cl)cc2)cc1 (stereo not drawn)	inactive	
O=C(Nc1cc([As](=O)(O)O)ccc1O)c1ccccc1	inactive	
CP(=O)(OC12CC3CC(CC(C3)C1)C2)OC12CC3CC(CC(C3)C1)C2		active: 6.61
Nc1ccc2c(ccc3cccnc32)n1.O=[N+]([O-])c1cc([N+](=O)[O-])c(O)c([N+](=O)[O-])c1	inactive	
CC(C)=N/N=C(\N)N[N+](=O)[O-]	inactive	
CN(C)C(=O)c1c([N+](=O)[O-])cc([N+](=O)[O-])cc1[N+](=O)[O-]	inactive	
CC1CCN(C(=O)Oc2c(Cl)cc(Cl)c3cccnc23)CC1	inactive	

Structure (SMILES)	outcome	B-score
COc1ccccc1OP(C)(=O)Nc1ccccc1Br (stereo not drawn)	inactive	
Nc1ccc([As](=O)(O)c2ccc(N)cc2)cc1	inactive	
CC(C)(C)c1ccc(OP(C)(=O)O)cc1	inactive	
C[N+]1=C2C=CC=CC=C2SC12C([N+](=O)[O-])=CC([N+](=O)[O-])=C[C-]2[N+](=O)[O-] (stereo not drawn)	inactive	
CCN(/C(=N/P(=O)(N1CCOCC1)N1CCOCC1)N1CCOCC1)c1ccc(OC)cc1	inactive	
CP(=O)(Nc1ccc(Cl)cc1)Oc1ccc(F)cc1 (stereo not drawn)	inactive	
CC(=O)N1C2C3N(C(C)=O)C1C1N(C(C)=O)C(C(N1C(C)=O)N3C(C)=O)N2C(C)=O	inactive	
O=[N+]([O-])c1cccc2n[nH]nc12	inactive	
COc1ccccc1OP(C)(=O)Nc1c(C)n(C)n(-c2ccccc2)c1=O (stereo not drawn)	inactive	
O=C(OCCCN1CCCC1)C(O)(c1ccccc1)C1CCCCC1 (stereo not drawn)	inactive	
Cc1ccc(NP(=O)(Oc2ccccc2)Oc2ccccc2)nc1	inactive	
CP(=O)(Oc1ccccc1)N1CCOC1=O (stereo not drawn)	inactive	
CCc1ccc(OP(C)(=O)Nc2cccnc2)cc1 (stereo not drawn)	inactive	
O=[N+]([O-])c1cc([N+](=O)[O-])c(CCNc2ccccc2)c([N+](=O)[O-])c1	inactive	
CCN(CC)CC(O)COC(=O)C(O)(c1ccccc1)C1CCCCC1 (stereo not drawn)	inactive	
COc1ccc(C2=NCC(CBr)S2)cc1 (stereo not drawn)	inactive	
COc1ccc(OP(C)(=O)Nc2ccc(Br)cc2)cc1 (stereo not drawn)	inactive	
Cc1ccccc1NP(C)(=O)Nc1ccccc1C	inactive	
CP(=O)(Nc1ccc2c(c1)OCCO2)Oc1ccccc1 (stereo not drawn)	inactive	
CCOP(C)(=S)SCC(=O)NC(C)(CC)C(=O)O (stereo not drawn)	inactive	
c1nnnn1CCn1cnnn1	inactive	
CP(=O)(Nc1ccc(SC(F)(F)F)cc1)Oc1ccc(F)cc1 (stereo not drawn)	inactive	
